# OPERA 2.9 data: properties

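The numbers are reported measurements, compiled and curated for the OPERA QSAR suite. One number stands for a compound and property, with no spread given. Method, purity and exact conditions of the single measurements are not given. A value may pool stereoisomers or salt forms, and the file does not say which form was measured. Some entries may be limits or estimates that an upstream database listed as plain numbers.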

Melting points are in °C.
The boiling point refers to atmospheric pressure (760 mmHg), by the definition of the set.
logP is the log10 of the octanol-water partition coefficient; higher is more lipophilic.
Water solubility is log10 of mol/L, nominally at 25 °C; higher is more soluble.
Vapor pressures (log10 mmHg) refer to near room temperature, 15 to 30 °C; higher is more volatile.

For CCCCC(CC)COC(=O)C(C#N)=C(c1ccccc1)c1ccccc1 (stereo not given) [2-Ethylhexyl-2-cyano-3,3-diphenylacrylate] the data give logP (octanol/water) 6.1 and log solubility -6.757 (log10 mol/L).
For CCCCCC1=CCCC1=O [2-Pentyl-2-cyclopenten-1-one] the data give bp 233.8 °C and logP (octanol/water) 2.8 and vapor pressure -1.569 (log10 mmHg).
For CC(C)(C(=O)c1cccnc1)c1cccnc1 [Metyrapone] the data give logP (octanol/water) 1.8 and log solubility -2.724 (log10 mol/L).
For CCCCCOC=O [Pentyl formate] the data give logP (octanol/water) 2.786 and log solubility -1.504 (log10 mol/L).
For CCC=CCCCCCCCC(=O)OC [9-Dodecenoic acid, methyl ester] the data give bp 267.9 °C and log solubility -5.31 (log10 mol/L) and vapor pressure -2.129 (log10 mmHg).
For CCCCCCC(CCCC)COS(=O)(=O)[O-].[Na+] (stereo not given) [Sodium 2-butyloctyl sulfate] the data give MP 176 °C and logP (octanol/water) 2.077.
For CC(C)CCOC(=N)O [3-Methylbutyl hydrogen carbonimidate] the data give MP 59 °C and bp 220 °C and log solubility -1.44 (log10 mol/L).
For OCCN1C[C@H](O)[C@@H](O)[C@H](O)[C@H]1CO [Miglitol] the data give logP (octanol/water) -2.7 and log solubility 0.469 (log10 mol/L).
For CCCC(C)C=O (stereo not given) [2-Methylpentanal] the data give logP (octanol/water) 1.8 and vapor pressure 1.282 (log10 mmHg).
For c1ccc(COc2ccc3ccccc3c2)cc1 [Benzyl 2-naphthyl ether] the data give logP (octanol/water) 5 and log solubility -6.938 (log10 mol/L) and vapor pressure -6.472 (log10 mmHg).
For O=c1oc(=O)c2cc3c(=O)oc(=O)c3cc12 [1H,3H-Benzo(1,2-c:4,5-c')difuran-1,3,5,7-tetrone] the data give logP (octanol/water) -2.03 and vapor pressure -8.002 (log10 mmHg).
For O=C(/C=C/c1ccc2c(c1)OCO2)N(c1ccccc1)c1ccccc1 [(2E)-3-(1,3-Benzodioxol-5-yl)-N,N-diphenylacrylamide] the data give MP 146.4 °C and logP (octanol/water) 3.4 and log solubility -6.442 (log10 mol/L) and vapor pressure -12.28 (log10 mmHg).
For O=C(c1ccccc1)c1ccc(O)c(O)c1O [2,3,4-Trihydroxbenzophenone] the data give logP (octanol/water) 2.8 and log solubility -3.345 (log10 mol/L) and vapor pressure -6.745 (log10 mmHg).
For COc1cccc(C(=O)Cl)c1C [Benzoyl chloride, 3-methoxy-2-methyl-] the data give MP 48.75 °C and log solubility -2.664 (log10 mol/L) and vapor pressure -2.593 (log10 mmHg).
For Nc1nc2ccc(S(=O)(=O)[O-])cc2s1.[Li+] [Lithium 2-aminobenzothiazole-6-sulphonate] the data give MP 387 °C and logP (octanol/water) 1.
For CC(c1ccc(OC#N)cc1)c1ccc(OC#N)cc1 [4,4'-Ethylidenediphenyl dicyanate] the data give MP 29 °C and log solubility -5.218 (log10 mol/L).
For C=CCN(CC=C)c1cc(NC(C)=O)c(N=Nc2c(Cl)cc([N+](=O)[O-])cc2[N+](=O)[O-])cc1OC the data give logP (octanol/water) 1.913 and log solubility -4.388 (log10 mol/L).
For COC(=O)c1ccc(C(=O)Nc2cc(Cl)ccc2Cl)cc1[N+](=O)[O-] the data give MP 158 °C and logP (octanol/water) 3.8 and log solubility -5.965 (log10 mol/L).
For O=C1OCC(CO)O1 (stereo not given) [1,3-Dioxolan-2-one, 4-(hydroxymethyl)-] the data give logP (octanol/water) -1.39 and vapor pressure -2.156 (log10 mmHg).

The last 3 entries again:

{"smiles": "C=CCN(CC=C)c1cc(NC(C)=O)c(N=Nc2c(Cl)cc([N+](=O)[O-])cc2[N+](=O)[O-])cc1OC", "logP (octanol/water)": "1.913", "log solubility (log10 mol/L)": "-4.388"}
{"smiles": "COC(=O)c1ccc(C(=O)Nc2cc(Cl)ccc2Cl)cc1[N+](=O)[O-]", "MP (°C)": "158", "logP (octanol/water)": "3.8", "log solubility (log10 mol/L)": "-5.965"}
{"smiles": "O=C1OCC(CO)O1", "stereo": "stereo not given", "name": "1,3-Dioxolan-2-one, 4-(hydroxymethyl)-", "logP (octanol/water)": "-1.39", "vapor pressure (log10 mmHg)": "-2.156"}

Source: data files of OPERA 2.9 (Mansouri et al.), github.com/kmansouri/OPERA.